Laboratory results published in patent US9227969B2, “Compounds and compositions as inhibitors of MEK” (NOVARTIS AG, priority 2013, dated 2016).
Read-outs that look alike come from different tables or passages of the source.

The chains behind the UniProt entries cited, without tags or fusion partners.
UniProt Q02750, whole entry: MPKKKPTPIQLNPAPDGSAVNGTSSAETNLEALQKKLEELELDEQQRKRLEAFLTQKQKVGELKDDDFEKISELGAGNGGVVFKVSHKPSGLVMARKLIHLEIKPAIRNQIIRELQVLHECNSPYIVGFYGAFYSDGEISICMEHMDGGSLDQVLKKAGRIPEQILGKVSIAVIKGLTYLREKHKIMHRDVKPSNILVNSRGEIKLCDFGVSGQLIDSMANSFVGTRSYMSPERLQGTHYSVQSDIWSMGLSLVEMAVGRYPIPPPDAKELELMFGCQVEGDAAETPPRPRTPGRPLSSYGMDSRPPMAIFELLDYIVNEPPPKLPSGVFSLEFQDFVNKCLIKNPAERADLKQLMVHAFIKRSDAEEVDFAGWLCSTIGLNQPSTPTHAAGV

Assays:
A375 cells [1] = conditions: read-out: A375 XTT IC50 uM
[2] = test system: phospho-ERK1/2 in A375 cells; conditions: read-out: A375 ICW IC50
A375 cells [3] = experiment: cells; conditions: Homo sapiens, A-375, 72 h, read-out: A375 XTT IC50 uM
MEK = MEK (Homo sapiens (Human), UniProt Q02750); experiment: biochemical

SMILES	IC50 (A375 cells [1])	IC50 [2]	IC50 (A375 cells [3])	IC50 (MEK)
Cc1nc2cnc3cc(F)c(-c4ccc(Oc5ncccn5)cc4Cl)cc3c2n1C1CCN(C(=O)C(C)F)CC1 (single isomer, unassigned) [Example 43A, (R or S)-1-(4-(8-(2-chloro-4-(pyrimidin-2-yloxy)phenyl)-7-fluoro-2-methyl-1H-imidazo[4,5-c]quinolin-1-yl)piperidin-1-yl)-2-fluoropropan-1-one]	0.677 µM	848 nM		
Cc1nc2cnc3cc(F)c(-c4ccc(Oc5ncccn5)cc4Cl)cc3c2n1C1CCN(C(=O)C(C)F)CC1 (single isomer, unassigned) [Example 43B, (R or S)-1-(4-(8-(2-chloro-4-(pyrimidin-2-yloxy)phenyl)-7-fluoro-2-methyl-1H-imidazo[4,5-c]quinolin-1-yl)piperidin-1-yl)-2-fluoropropan-1-one]	2.38 µM	3800 nM		
COc1cc(Oc2ncccn2)ccc1-c1cc2c(cc1F)ncc1nc(C)n([C@H]3CCN(C(=O)CO)C[C@@H]3F)c12 [Example 88, 1-((3S,4S)-3-fluoro-4-(7-fluoro-8-(2-methoxy-4-(pyrimidin-2-yloxy)phenyl)-2-methyl-1H-imidazo[4,5-c]quinolin-1-yl)piperidin-1-yl)-2-hydroxyethanone]			0.108 µM	
N#CCc1ccc(-n2cnc3cnc4cc(F)c(-c5ccc(Oc6ccccn6)cc5Cl)cc4c32)cc1 [compound (A)]				< 100 nM
COc1cc(Oc2ccccn2)ccc1-c1ccc2ncc3ncn(-c4ccc(CC#N)cc4)c3c2c1 [compound (B)]				< 100 nM
